Assay results as given in patent publication US20230228656A1, “Functionalized Blood Sampling Device and Method for PEth Measurement” (CAPITAINER AB, priority 2020, published 2023).

Test: Resistance of the salts to the temperature during production

sodium metavanadate [NaVO3]
temperature stability: withstand the temperature during production
